Literature values, collected in US9850293B2, “Targeting trastuzumab-resistant HER2+ breast cancer with a HER3-targeting nanoparticle” (priority 2014, dated 2017).

Conditions: T-DM1; untargeted Dox in patients; cited from earlier work

For `COc1cccc2c1C(=O)c1c(O)c3c(c(O)c1C2=O)C[C@@](O)(C(=O)CO)C[C@@H]3O[C@H]1C[C@H](N)[C@H](O)[C@H](C)O1` [Dox, doxorubicin, reference compound], the therapeutic dose required is given as 1 to 5 mg/kg.
